Data published in US20070293434A9, “Binding polypeptides and methods based thereon” (priority 2000, published 2007).

Protein sequences, listed by entry. Tags and fused reporters are not part of them. Residues count along the entry.
UniProt Q9Y275, 134-285 limits assumed: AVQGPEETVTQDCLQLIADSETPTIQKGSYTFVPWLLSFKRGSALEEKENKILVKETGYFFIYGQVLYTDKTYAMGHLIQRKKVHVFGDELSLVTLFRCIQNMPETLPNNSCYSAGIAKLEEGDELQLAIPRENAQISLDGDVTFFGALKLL

Target: BLyS (Homo sapiens, UniProt Q9Y275)
Assay: Fluorescence anisotropy determination of BLyS-ligand dissociation constants
Format: binding
Conditions: for KD compared with DX814 (in words): compared to DX814
Procedure: Dissociation constants between the synthetic peptides and BLyS (free in solution) were measured by fluorescence anisotropy (FA). In these experiments, the concentration of the fluorescein-labeled peptide is held constant and the BLyS protein concentration was varied. […] Binding reactions containing 50 nM fluorescein-labeled peptide and a varied concentration of BLyS in a volume between 10 and 20 μL per well were performed in 384 well microplates. Reactions were assayed using a Tecan Polarion fluorescence polarization plate reader. Cross-competition studies between peptides were performed using 50 nM fluorescein-labeled peptide and 1-2 μM BLyS in the presence and absence of 100 μM unlabeled peptide. […] Other buffers in which dissociation constants of BLyS Binding polypeptides were […] include: […] DX818 corresponds to isolate SEQ ID NO:340, except that Asn has been […]. The KD of several BLyS binding BAML peptides was determined by fluorescence anisotropy, performed as previously described. The sequence of DX822 without the -GGK linker (see SEQ ID NO:327) matches the BAML template sequence (see Table 10).

[1] = fitc-labeled synthetic BAML peptides with GGK linker

| Substance | Kd [1] | Kd | KD compared with DX814 (in words) |
| --- | --- | --- | --- |
| Ac-ANWFDPLTKLWLPDGGK-fitc [DX817] | 32 ± 26 nM | – | – |
| Ac-ANWYDPLTKLSLPDGGK-fitc [DX818] | 342 ± 108 nM | – | – |
| Ac-ANWYDPLTKLWFPDGGK-fitc [DX819] | – | 69 nM | – |
| Ac-ANWYDPLTKLWLPDGGK-fitc [DX814] | 26 ± 7 nM | – | – |
| Ac-ANWYDPLTKLWLPVGGK-fitc [DX816] | 44 ± 15 nM | – | little effect on the KD |
| Ac-ANWYDSLTKLWLPDGGK-fitc [DX822] | 79 ± 54 nM | – | – |
| Ac-WYDPLTKLWLPDGGK-fitc [DX815] | 31 ± 13 nM | – | indistinguishable from that of DX814 |

Read-outs that look alike come from different tables or passages of the source.
